Chains of the proteins cited; added tags and fusions are not shown. Lines headed by an entry give the natural chain unless they say otherwise; changes in a name come on top. Residues count along the entry.
UniProt Q08493: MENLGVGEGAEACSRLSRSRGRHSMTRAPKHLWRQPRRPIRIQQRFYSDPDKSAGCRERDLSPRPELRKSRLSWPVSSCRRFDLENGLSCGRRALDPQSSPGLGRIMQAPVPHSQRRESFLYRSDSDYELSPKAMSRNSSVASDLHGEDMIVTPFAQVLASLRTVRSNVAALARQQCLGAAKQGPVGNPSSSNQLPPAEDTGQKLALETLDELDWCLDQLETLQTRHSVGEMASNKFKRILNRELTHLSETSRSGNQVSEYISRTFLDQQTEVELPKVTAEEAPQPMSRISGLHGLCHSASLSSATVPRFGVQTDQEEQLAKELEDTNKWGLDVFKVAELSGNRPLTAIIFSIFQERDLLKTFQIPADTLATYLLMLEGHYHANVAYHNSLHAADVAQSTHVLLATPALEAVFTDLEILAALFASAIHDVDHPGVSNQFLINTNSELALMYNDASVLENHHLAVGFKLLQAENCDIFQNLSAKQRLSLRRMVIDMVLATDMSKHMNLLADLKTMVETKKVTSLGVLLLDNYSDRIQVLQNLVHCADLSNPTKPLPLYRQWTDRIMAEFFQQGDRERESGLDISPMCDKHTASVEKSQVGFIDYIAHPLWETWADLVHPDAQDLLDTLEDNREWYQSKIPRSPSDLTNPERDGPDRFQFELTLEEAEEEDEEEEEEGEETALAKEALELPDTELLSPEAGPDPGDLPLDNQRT
UniProt P27815, 265-886 limits assumed: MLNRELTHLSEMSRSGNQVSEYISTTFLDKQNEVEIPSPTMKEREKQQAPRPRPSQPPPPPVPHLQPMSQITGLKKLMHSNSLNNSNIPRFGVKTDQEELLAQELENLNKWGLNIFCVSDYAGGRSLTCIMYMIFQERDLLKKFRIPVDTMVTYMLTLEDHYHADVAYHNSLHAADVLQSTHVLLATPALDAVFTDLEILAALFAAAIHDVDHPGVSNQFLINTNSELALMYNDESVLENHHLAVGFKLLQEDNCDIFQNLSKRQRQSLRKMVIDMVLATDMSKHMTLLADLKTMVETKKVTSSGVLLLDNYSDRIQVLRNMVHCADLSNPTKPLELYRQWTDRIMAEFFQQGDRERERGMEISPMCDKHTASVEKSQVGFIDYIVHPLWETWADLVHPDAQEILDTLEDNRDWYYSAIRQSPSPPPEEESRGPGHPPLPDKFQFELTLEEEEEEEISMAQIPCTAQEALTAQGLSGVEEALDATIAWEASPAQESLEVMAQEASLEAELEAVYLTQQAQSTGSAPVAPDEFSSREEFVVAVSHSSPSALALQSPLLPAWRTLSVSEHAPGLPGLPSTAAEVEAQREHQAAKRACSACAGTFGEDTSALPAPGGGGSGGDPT

According to article PMC10345255 (Biomedical Journal, 2022):

Assays:
PDE4C1 = biological target: T1, PDE4C1 (Homo sapiens, UniProt Q08493); assay: biochemical
T1 construct: gene PDE4C

PDE4A1 = biological target: T2, PDE4A1 (Homo sapiens, UniProt P27815); assay: biochemical
T2 construct: gene PDE4A

CCOc1cc([C@@H](CS(C)(=O)=O)N2C(=O)c3cccc(NC(C)=O)c3C2=O)ccc1OC [apremilast]
IC50 (PDE4C1): 0.0631 ± 0.0233 µM
IC50 (PDE4A1): 0.00233 ± 0.00071 µM
